Measured values from PubChem BioAssay AID2751 (The Scripps Research Institute Molecular Screening Center, 2010).
Only a part is listed here, and it is no random draw. Activity calls are given as the source filed them. Rule as the data show it: active = inhibition above about 43%; inactive = the rest.

Sequences of proteins named here, by UniProt entry; tags and fusion partners are left off.
UniProt Q4J6C6, whole entry, looked up: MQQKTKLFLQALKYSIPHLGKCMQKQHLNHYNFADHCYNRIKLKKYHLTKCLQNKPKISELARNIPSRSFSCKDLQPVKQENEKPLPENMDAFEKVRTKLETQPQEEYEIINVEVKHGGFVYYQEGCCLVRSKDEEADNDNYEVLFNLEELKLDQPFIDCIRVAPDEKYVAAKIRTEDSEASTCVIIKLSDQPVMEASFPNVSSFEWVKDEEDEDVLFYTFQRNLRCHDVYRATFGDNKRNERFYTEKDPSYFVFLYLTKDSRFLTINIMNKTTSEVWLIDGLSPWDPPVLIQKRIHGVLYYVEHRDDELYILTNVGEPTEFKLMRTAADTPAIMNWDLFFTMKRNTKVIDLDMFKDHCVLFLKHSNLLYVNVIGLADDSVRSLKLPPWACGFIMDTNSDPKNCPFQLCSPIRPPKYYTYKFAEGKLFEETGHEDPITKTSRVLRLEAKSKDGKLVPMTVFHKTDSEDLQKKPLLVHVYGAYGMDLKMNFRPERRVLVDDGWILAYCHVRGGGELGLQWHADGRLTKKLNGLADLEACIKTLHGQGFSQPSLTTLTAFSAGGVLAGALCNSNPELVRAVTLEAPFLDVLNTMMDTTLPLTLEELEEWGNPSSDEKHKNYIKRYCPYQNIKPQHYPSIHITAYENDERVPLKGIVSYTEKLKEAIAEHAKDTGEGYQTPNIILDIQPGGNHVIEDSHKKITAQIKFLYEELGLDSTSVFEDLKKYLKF

Each compound was assayed against Prolyl endopeptidase-like (Homo sapiens) (UniProt Q4J6C6) (assay: human PREPL activity-probe blockers – biochemical, fluorescence polarization, primary screen (AID 2751;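 also: 0% = enzyme with DMSO and 100% = wells lacking enzyme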)). Conditions: recombinant PREPL, fluorescence polarization activity-based probe; at 5.96 µM; active compounds read high.
In the case of `O=P(Nc1ccccn1)(c1ccc(Br)cc1)c1ccc(Br)cc1`, the inhibition is reported as inactive: -6.09%. `CN(C)C1(CNC(=O)c2ccc(Cl)c(S(N)(=O)=O)c2)CCCCC1` was tested, and the inhibition was inactive: -2.27%. For `C[C@H]1OP(=O)(Oc2ccccc2)[C@H](O)[C@H](O)[C@H]1N=[N+]=[N-]` (stereo partly specified), the inhibition was inactive: -9.56%. `O=P(Nc1nc2ccccc2s1)(c1ccccc1)c1ccccc1` was tested, and the inhibition was inactive: 10.6%. For `O=[N+]([O-])c1ccc(O)c(/C=N/Nc2ccc([N+](=O)[O-])cc2[N+](=O)[O-])c1`, the inhibition was inactive: 5.7%. For `CC(=O)NC(SC(=S)N(C)C)C(Cl)(Cl)Cl` (stereo unspecified), the inhibition was inactive: -5.53%. For `O=[N+]([O-])c1ncn(CCn2cnc([N+](=O)[O-])n2)n1`, the inhibition was inactive: 0.18%. `O=[As](O)(c1ccccc1)c1ccc(O)cc1` was tested, and the inhibition was inactive: 8.47%. `C(Cc1nn[nH]n1)Cc1nn[nH]n1` was tested, and the inhibition was inactive: 2.74%. For `Nc1ccc([As](=O)(O)c2ccc([N+](=O)[O-])cc2)cc1`, the inhibition was inactive: -5.98%. With `O=C(OC1CN2CCC1CC2)c1cccc(Cl)c1` (stereo unspecified) the inhibition was inactive: 13.2%. With `CC(C)C(=O)NC(Sc1ccccc1)C(Cl)(Cl)Cl` (stereo unspecified) the inhibition was inactive: 5.67%. `O=P(Nc1nccs1)(c1ccccc1)c1ccccc1` was tested, and the inhibition was inactive: -0.13%. With `c1nnnn1CCn1cnnn1` the inhibition was inactive: -6.61%. In the case of `CCOc1ccc(C2=NCC(CBr)S2)cc1` (stereo unspecified), the inhibition is reported as inactive: -12.3%. In the case of `O=P1(Nc2nc3ccc(Cl)cc3s2)COc2ccccc2O1` (stereo unspecified), the inhibition is reported as inactive: -8.5%. With `CC(C)(C)C(=O)NC(Sc1ccccc1)C(Cl)(Cl)Cl` (stereo unspecified) the inhibition was inactive: 9.41%. `CC(=O)c1ccc(N2CC2c2ccncc2)cc1` (stereo unspecified) was tested, and the inhibition was inactive: -8.13%. `C[C@H]1OP(=O)(Oc2ccccc2)C[C@@H]2O[C@@H]21` (stereo partly specified) was tested, and the inhibition was inactive: 9.74%. For `C[C@@H]1C=CCP(=O)(Oc2ccccc2)O1` (stereo partly specified), the inhibition was inactive: -0.39%. `Cc1ccccc1CN(C)C(=O)COC(=O)C(O)(c1ccccc1)c1ccccc1` was tested, and the inhibition was inactive: 12.6%. With `CC(=O)Nc1ccc(Oc2c([N+](=O)[O-])cc([N+](=O)[O-])cc2[N+](=O)[O-])cc1` the inhibition was inactive: 0.93%. With `CC(=O)Nc1ccc([As](=O)(O)O)c(O)c1` the inhibition was inactive: 7.29%. With `CCNC(=S)/N=C(\N)N[N+](=O)[O-]` the inhibition was inactive: 3.43%. For `O=C(NC1CCS(=O)(=O)C1)NP(=S)(Oc1ccccc1)Oc1ccccc1` (stereo unspecified), the inhibition was inactive: -2.5%. For `Cc1ccc(NP(=O)(Oc2cccc(C)c2)Oc2cccc(C)c2)nc1`, the inhibition was inactive: 8.16%. In the case of `CCOC(=O)NC(Sc1ccccc1)C(Cl)(Cl)Cl` (stereo unspecified), the inhibition is reported as inactive: 0.47%. For `c1ccc(-c2nn[nH]n2)c(-c2nn[nH]n2)c1`, the inhibition was inactive: -12.8%. With `CC(=O)NC(SC(=S)N(CC(C)C)CC(C)C)C(Cl)(Cl)Cl` (stereo unspecified) the inhibition was inactive: 12.2%. In the case of `Cc1ccc(OP(=O)(Nc2ccccn2)Oc2ccc(C)cc2)cc1`, the inhibition is reported as inactive: 6.21%. `COC(=O)c1cc2c(s1)N=C(c1ccccc1)N(C)P2(=O)N1CCOCC1` (stereo unspecified) was tested, and the inhibition was inactive: 18.6%. `CCC(=O)N1C2C3N(C(=O)CC)C1C1N(C(=O)CC)C(C(N1C(=O)CC)N3C(=O)CC)N2C(=O)CC` was tested, and the inhibition was inactive: 5.17%. `O=C(OC1CN2CCC1CC2)c1ccccc1` (stereo unspecified) was tested, and the inhibition was inactive: -1.42%. For `CN(C)C(=O)Oc1noc2ccccc12`, the inhibition was inactive: -0.38%. In the case of `CC(NC(=O)COC(=O)C(O)(c1ccccc1)c1ccccc1)c1ccccc1` (stereo unspecified), the inhibition is reported as inactive: 29%. With `Cc1ccccc1OP(=O)(Nc1ccccn1)Oc1ccccc1C` the inhibition was inactive: -4.01%. For `CC(=O)Nc1ccc([As](=O)(O)O)cc1`, the inhibition was inactive: 8.78%. For `O=C(O)c1ccccc1[As](=O)(O)O`, the inhibition was inactive: 0.88%. For `O=P(Nc1nc2ccc(Cl)cc2s1)(c1ccccc1)c1ccccc1`, the inhibition was inactive: 10.2%. With `Cc1ccc(NP(=O)(Oc2ccccc2F)Oc2ccccc2F)nc1` the inhibition was inactive: -2.45%. `CN(C(=O)Cc1ccc(Cl)c(Cl)c1)[C@H]1CCCC[C@@H]1N1CCCC1` was tested, and the inhibition was inactive: 35.5%. `Cc1cc(SC(NC(=O)c2ccc(F)cc2)C(Cl)(Cl)Cl)ncn1` (stereo unspecified) was tested, and the inhibition was inactive: 6.44%. `CCOP(=O)(Nc1ccccc1)OCC` was tested, and the inhibition was inactive: 6.01%. In the case of `O=[N+]([O-])c1cc([N+](=O)[O-])c(CCN2CCOCC2)c([N+](=O)[O-])c1`, the inhibition is reported as active: 61.4%. With `CCN(N=Nc1nonc1N)c1nonc1N` the inhibition was inactive: -4.5%. In the case of `NC(=O)c1cc([N+](=O)[O-])cc([N+](=O)[O-])c1N`, the inhibition is reported as inactive: 9.77%. For `Cc1ccc(N/C(=N/P(=O)(N2CCOCC2)N2CCOCC2)N2CCOCC2)cc1`, the inhibition was inactive: -2.41%. `CN(C(=O)Cc1ccc(Cl)c(Cl)c1)[C@H]1CCCC[C@H]1N1CCCC1` was tested, and the inhibition was active: 61.8%. In the case of `Cc1ccc(OP(=O)(Nc2nccs2)Oc2ccc(C)cc2)cc1`, the inhibition is reported as inactive: -4.72%. For `COc1ccccc1OP(=O)(Nc1ccc(C)cn1)Oc1ccccc1OC`, the inhibition was inactive: -2.06%. `CN1CCCC(OC(=O)C(c2ccccc2)c2ccccc2)C1` (stereo unspecified) was tested, and the inhibition was inactive: -5.71%. `Clc1ccc(Cl)c(NC2=NCC(CBr)S2)c1` (stereo unspecified) was tested, and the inhibition was inactive: -0.13%. In the case of `Nc1cc(N)c2nonc2c1[N+](=O)[O-]`, the inhibition is reported as inactive: -1.42%. `CC(C)CC(=O)NC(Sc1ccc(Cl)cc1)C(Cl)(Cl)Cl` (stereo unspecified) was tested, and the inhibition was inactive: 8.12%. For `O=C(NC(Sc1ccncn1)C(Cl)(Cl)Cl)c1ccccc1` (stereo unspecified), the inhibition was inactive: 9.42%. In the case of `Cc1c2non([O-])c-2c(C)[n+](=O)[n+]1[O-]`, the inhibition is reported as inactive: 4.61%. For `Oc1ccccc1CNc1ccccn1`, the inhibition was inactive: -11.4%. In the case of `COc1ccc(C2=NCC(CBr)S2)cc1` (stereo unspecified), the inhibition is reported as inactive: -6.76%. For `O=[N+]([O-])c1cccc2n[nH]nc12`, the inhibition was inactive: -7%. `CC(=O)N1C2C3N(C(C)=O)C1C1N(C(C)=O)C(C(N1C(C)=O)N3C(C)=O)N2C(C)=O` was tested, and the inhibition was inactive: -0.78%. With `CCc1nc2c(n1)c1c(non1O)c1c2no[n+]1[O-]` the inhibition was inactive: 11.4%. In the case of `O=[N+]([O-])c1cc([N+](=O)[O-])c(CCNc2ccccc2)c([N+](=O)[O-])c1`, the inhibition is reported as inactive: 26.2%. `Cc1ccc(NP(=O)(Oc2ccccc2)Oc2ccccc2)nc1` was tested, and the inhibition was inactive: 0.35%. With `C[N+]1=C2C=CC=CC=C2SC12C([N+](=O)[O-])=CC([N+](=O)[O-])=C[C-]2[N+](=O)[O-]` (stereo unspecified) the inhibition was inactive: 20.4%. In the case of `Nc1ccc([As](=O)(O)c2ccc(N)cc2)cc1`, the inhibition is reported as inactive: 9.12%. With `CCN(/C(=N/P(=O)(N1CCOCC1)N1CCOCC1)N1CCOCC1)c1ccc(OC)cc1` the inhibition was inactive: 2.74%. In the case of `CN(C)C(=O)OCCc1n(C)cc[n+]1C`, the inhibition is reported as inactive: -3.58%. In the case of `CC(C)=N/N=C(\N)N[N+](=O)[O-]`, the inhibition is reported as inactive: -12.1%. For `CC1CCN(C(=O)Oc2c(Cl)cc(Cl)c3cccnc23)CC1`, the inhibition was inactive: 2.44%. With `O=C(Nc1cc([As](=O)(O)O)ccc1O)c1ccccc1` the inhibition was inactive: 12%. With `CC(C)(C)C(=O)NC(Sc1ccncn1)C(Cl)(Cl)Cl` (stereo unspecified) the inhibition was inactive: 14.4%. In the case of `O=[N+]([O-])c1ncn(CCn2ncnc2[N+](=O)[O-])n1`, the inhibition is reported as inactive: -3.62%. In the case of `O=[N+]([O-])c1cccc(NC2=NCC(CBr)S2)c1` (stereo unspecified), the inhibition is reported as inactive: 8.87%. For `CCOC(=O)Nc1ccc([As](=O)(O)O)c(O)c1`, the inhibition was inactive: 4.96%. With `Cc1cc(SC(NC(=O)c2ccccc2)C(Cl)(Cl)Cl)nc(C(C)C)n1` (stereo unspecified) the inhibition was inactive: 2.73%. With `CCOC(=O)Nc1cccc([As](=O)(O)O)c1` the inhibition was inactive: 5.63%. `O=P(Nc1ccccn1)(c1cccc2ccccc12)c1cccc2ccccc12` was tested, and the inhibition was inactive: -17.9%. With `Cc1cc(SC(NC=O)C(Cl)(Cl)Cl)ncn1` (stereo unspecified) the inhibition was inactive: 8.9%. In the case of `COP1(=S)c2c(C)nn(CCC#N)c2N=C(c2ccc(F)cc2)N1C` (stereo unspecified), the inhibition is reported as inactive: 37.7%. For `O=C(Nc1ccncc1[N+](=O)[O-])c1ccc([N+](=O)[O-])cc1[N+](=O)[O-]`, the inhibition was inactive: 13.8%. For `O=C(COc1ccccc1)OC1CN2CCC1CC2` (stereo unspecified), the inhibition was inactive: 18%. For `CCOC(=O)c1ccc(NC(=O)C(C)(CCl)SC)cc1` (stereo unspecified), the inhibition was inactive: 6.31%. `O=C(OC1CN2CCC1CC2)c1cccc([N+](=O)[O-])c1` (stereo unspecified) was tested, and the inhibition was inactive: 2.21%. For `CCC(C)N(CC(C)C)C(=S)SC(NC(C)=O)C(Cl)(Cl)Cl` (stereo unspecified), the inhibition was inactive: 7.07%. For `Cc1cc(=O)[nH]c(N[N+](=O)[O-])n1`, the inhibition was inactive: 8.53%. With `O=C(OC1CN2CCC1CC2)C12CC3CC(CC(C3)C1)C2` (stereo unspecified) the inhibition was inactive: 16.2%. In the case of `Cc1c2c(nc3ccccc13)SC(C(Cl)Cl)C2` (stereo unspecified), the inhibition is reported as inactive: 2.32%. With `COc1ccc2nc(NP(=O)(c3ccccc3)c3ccccc3)sc2c1` the inhibition was inactive: 5.28%. With `COc1ccc(N/C(=N/P(=O)(N2CCOCC2)N2CCOCC2)N2CCOCC2)cc1` the inhibition was inactive: -3.34%. With `COc1cc(C(=O)NCC2(N3CCOCC3)CCCCC2)ccc1OCC(C)C` the inhibition was inactive: 5.32%. `C[As](=O)(O)c1cccc(C(=O)O)c1` was tested, and the inhibition was inactive: 14.8%. With `O=[As](O)(c1ccc(O)cc1)c1ccccc1O` the inhibition was inactive: 0.16%. With `Cc1ccc2nc3c(c(C)c2c1)CC(C(Cl)Cl)S3` (stereo unspecified) the inhibition was inactive: -2.72%. `Cc1ccc(OP(=O)(Nc2ccc([N+](=O)[O-])cn2)Oc2ccc(C)cc2)cc1` was tested, and the inhibition was inactive: -5.58%. For `CC(C)c1ccc(OP(=O)(Nc2ccccn2)Oc2ccccc2F)cc1` (stereo unspecified), the inhibition was inactive: -4.8%. With `ClCCSc1nnc(-c2cccnc2)o1` the inhibition was inactive: -4.03%. In the case of `O=[N+]([O-])c1cc([N+](=O)[O-])c(-c2ccn[nH]2)s1`, the inhibition is reported as inactive: 6.7%. In the case of `CC(C)NC(=O)NP(=O)(Oc1ccccc1)Oc1ccccc1`, the inhibition is reported as inactive: 14.1%. With `CCN(CC)C(=S)SC(NC=O)C(Cl)(Cl)Cl` (stereo unspecified) the inhibition was inactive: 19.3%. With `CS(=O)(=O)c1cc([N+](=O)[O-])c2no[n+]([O-])c2c1` the inhibition was inactive: 10.9%. `O=P(Nc1nccs1)(Oc1ccccc1)Oc1ccccc1` was tested, and the inhibition was inactive: 9.8%.
